Data on 56 molecules can be found in PubChem BioAssay AID651699 (Sanford-Burnham Center for Chemical Genomics, 2012).

By UniProt entry, the sequences of proteins in these tests, tags left out. Where a name states a change or a piece, a line headed by the entry shows the natural chain unless it says otherwise.
UniProt P61081: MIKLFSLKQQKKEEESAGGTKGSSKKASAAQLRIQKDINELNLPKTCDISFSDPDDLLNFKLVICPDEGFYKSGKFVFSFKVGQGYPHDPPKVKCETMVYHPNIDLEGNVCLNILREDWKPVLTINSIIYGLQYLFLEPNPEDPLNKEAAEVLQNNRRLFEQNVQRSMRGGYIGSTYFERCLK
UniProt Q13564: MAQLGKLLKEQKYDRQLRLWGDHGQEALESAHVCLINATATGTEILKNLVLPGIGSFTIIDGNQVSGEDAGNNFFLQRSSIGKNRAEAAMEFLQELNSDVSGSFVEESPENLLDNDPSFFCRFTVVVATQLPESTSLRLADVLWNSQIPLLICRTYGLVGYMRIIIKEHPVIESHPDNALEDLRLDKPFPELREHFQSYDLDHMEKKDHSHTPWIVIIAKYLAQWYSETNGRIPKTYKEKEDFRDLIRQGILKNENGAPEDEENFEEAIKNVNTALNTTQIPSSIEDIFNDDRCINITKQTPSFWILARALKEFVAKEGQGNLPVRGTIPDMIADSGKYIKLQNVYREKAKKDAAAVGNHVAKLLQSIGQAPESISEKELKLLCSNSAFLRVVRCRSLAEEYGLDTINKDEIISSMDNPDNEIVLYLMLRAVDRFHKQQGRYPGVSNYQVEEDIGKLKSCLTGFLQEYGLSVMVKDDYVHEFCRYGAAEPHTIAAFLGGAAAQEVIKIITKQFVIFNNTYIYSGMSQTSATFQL

Only a part is listed here, and it is no random draw. Activity calls are given as the source filed them. Rule as the data show it: active = inhibition above about 36%; inactive = the rest.

For this test, the target named is NEDD8-conjugating enzyme Ubc12 (Homo sapiens) + NEDD8-activating enzyme E1 regulatory subunit (Homo sapiens) (UniProt P61081+Q13564). Briefly: inhibitors of cullin neddylation, primary screen, biochemical, TR-FRET, uHTS, NAE and Ubc12 (AID 651699). To be noted: at 25 µM, stronger effect = higher value.
Regarding `CCOC(=O)Nc1cccc([As](=O)(O)O)c1`, the inhibition is inactive: -1.08%.

With `O=[N+]([O-])c1ccc(Nc2ccc(Oc3ccc([N+](=O)[O-])cc3[N+](=O)[O-])cc2)c([N+](=O)[O-])c1`, the inhibition was inactive: -20.3%. For `Cc1cc(SC(NC=O)C(Cl)(Cl)Cl)ncn1` (stereo unspecified), the inhibition was inactive: -3.36%. Turning to `O=P(Nc1ccccn1)(c1cccc2ccccc12)c1cccc2ccccc12`, the inhibition was inactive: -35%. Then `O=[N+]([O-])c1ccc(-c2cc([N+](=O)[O-])c(O)c([N+](=O)[O-])c2)cc1`, with inactive: -38.7%; and `COc1cc(C(=O)NCC2(N3CCOCC3)CCCCC2)ccc1OCC(C)C`, with inactive: -1.58%; and `O=[As](O)(c1ccc(O)cc1)c1ccccc1O`, with inactive: -3.69%. Then `C[As](=O)(O)c1cccc(C(=O)O)c1`, with inactive: 1.54%; and `Cc1ccc2nc3c(c(C)c2c1)CC(C(Cl)Cl)S3` (stereo unspecified), with inactive: -89.5%. For the molecule `Cc1ccc(OP(=O)(Nc2ccc([N+](=O)[O-])cn2)Oc2ccc(C)cc2)cc1`, the inhibition was inactive: 0.63%.

For the molecule `[N-]=[N+]=NC1CCCCC1NC(=O)c1cc([N+](=O)[O-])cc([N+](=O)[O-])c1` (stereo unspecified), the inhibition was inactive: -30.7%. Take `COC(=O)C1(C)COP(=O)(N2CCCCCC2)OC1` (stereo unspecified): the inhibition was inactive: -2.54%. The same measure for `CC(C)c1ccc(OP(=O)(Nc2ccccn2)Oc2ccccc2F)cc1` (stereo unspecified): inactive: 13.8%.

Consider `ClCCSc1nnc(-c2cccnc2)o1`, for which the inhibition was inactive: -6.92%. The same measure for `O=[N+]([O-])c1cc([N+](=O)[O-])c(-c2ccn[nH]2)s1`: inactive: -22.1%; for `CC(C)NC(=O)NP(=O)(Oc1ccccc1)Oc1ccccc1`: inactive: 2.03%; for `O=C(OC1CN2CCC1CC2)c1cccc2[nH]cnc12` (stereo unspecified): inactive: 9.46%. In the case of `CCN(CC)C(=S)SC(NC=O)C(Cl)(Cl)Cl` (stereo unspecified), the inhibition is inactive: 8.39%. Then `Cc1cc(=O)[nH]c(N[N+](=O)[O-])n1`, with inactive: 8.29%; and `O=C(OC1CN2CCC1CC2)C12CC3CC(CC(C3)C1)C2` (stereo unspecified), with inactive: 9.12%; and `Cc1c2c(nc3ccccc13)SC(C(Cl)Cl)C2` (stereo unspecified), with inactive: -106%. As to `COc1cc(I)ccc1[As](=O)(O)O`, the inhibition was inactive: 2.69%. The same measure for `COc1ccc2nc(NP(=O)(c3ccccc3)c3ccccc3)sc2c1`: inactive: 3.2%; for `O=P1(N(CCCl)CCCl)Nc2ccccc2N1`: inactive: -1.77%; for `O=P1(N(CCCl)CCCl)OCCCN1CCCl` (stereo unspecified): inactive: -2.59%. Then `COc1ccc(N/C(=N/P(=O)(N2CCOCC2)N2CCOCC2)N2CCOCC2)cc1`, with inactive: 4.88%; and `O=[N+]([O-])c1cc(Oc2ccc([N+](=O)[O-])cc2C(F)(F)F)cc([N+](=O)[O-])c1`, with inactive: -30.6%. Then `NC(=O)c1cc([N+](=O)[O-])cc([N+](=O)[O-])c1N`, with inactive: -38.5%; and `Cc1ccc(N/C(=N/P(=O)(N2CCOCC2)N2CCOCC2)N2CCOCC2)cc1`, with inactive: 7.32%; and `CN(C(=O)Cc1ccc(Cl)c(Cl)c1)[C@H]1CCCC[C@H]1N1CCCC1`, with inactive: 7.51%. Regarding `Cc1ccc(OP(=O)(Nc2nccs2)Oc2ccc(C)cc2)cc1`, the inhibition is inactive: -2.15%. The same measure for `COc1ccccc1OP(=O)(Nc1ccc(C)cn1)Oc1ccccc1OC`: inactive: 3.49%. The same measure for `CN1CCCC(OC(=O)C(c2ccccc2)c2ccccc2)C1` (stereo unspecified): inactive: -3.29%. Then `Clc1ccc(Cl)c(NC2=NCC(CBr)S2)c1` (stereo unspecified), with inactive: -0.63%; and `Nc1cc(N)c2nonc2c1[N+](=O)[O-]`, with inactive: -38.6%; and `CC(C)CC(=O)NC(Sc1ccc(Cl)cc1)C(Cl)(Cl)Cl` (stereo unspecified), with inactive: -0.26%.

Regarding `O=C(NC(Sc1ccncn1)C(Cl)(Cl)Cl)c1ccccc1` (stereo unspecified), the inhibition was inactive: 9.1%. Then `Oc1ccccc1CNc1ccccn1`, with inactive: -0.45%; and `O=[N+]([O-])C1C(O)C(O)C([N+](=O)[O-])C(O)C1O` (stereo unspecified), with inactive: -1.63%. The same measure for `CCCC1OP(N)(=O)OCC1CC` (stereo unspecified): inactive: -4.72%.

Consider `CC(=O)Nc1ccc([As](=O)(O)O)cc1`, for which the inhibition was inactive: 2.35%. For the molecule `O=C(O)c1ccccc1[As](=O)(O)O`, the inhibition is inactive: -0.11%. Then `O=P(Nc1nc2ccc(Cl)cc2s1)(c1ccccc1)c1ccccc1`, with inactive: 26.9%; and `CN(C)P(=O)(N(C)C)n1c(Nc2ccccc2)nnc1-c1ccccc1`, with inactive: 1.21%. For `CN(C(=O)Cc1ccc(Cl)c(Cl)c1)[C@H]1CCCC[C@@H]1N1CCCC1`, the inhibition was inactive: -1.15%. With `Cc1ccc(NP(=O)(Oc2ccccc2F)Oc2ccccc2F)nc1`, the inhibition is inactive: 33.4%.

`Cc1cc(SC(NC(=O)c2ccc(F)cc2)C(Cl)(Cl)Cl)ncn1` (stereo unspecified): the inhibition is inactive: -0.22%. Then `CCOP(=O)(Nc1ccccc1)OCC`, with inactive: 5.63%. The same measure for `CCN(N=Nc1nonc1N)c1nonc1N`: inactive: -5.44%; for `Nc1cccc2ccc([As](=O)(O)O)cc12`: inactive: -0.05%; for `O=P1(N(CCCl)CCCl)OCCCS1` (stereo unspecified): inactive: -1.93%. On to `O=C(Nc1cc([As](=O)(O)O)ccc1O)c1ccccc1`, for which the inhibition was inactive: -1.36%. On to `CC(C)(C)C(=O)NC(Sc1ccncn1)C(Cl)(Cl)Cl` (stereo unspecified), for which the inhibition was inactive: -3.08%. In the case of `O=[N+]([O-])c1ncn(CCn2ncnc2[N+](=O)[O-])n1`, the inhibition is inactive: -10.5%. As to `COC(=O)C1(C)COP(=O)(Nc2ccccc2)OC1` (stereo unspecified), the inhibition was inactive: 4.37%.

Regarding `O=[N+]([O-])c1cccc(NC2=NCC(CBr)S2)c1` (stereo unspecified), the inhibition is inactive: -25.6%.

The inhibition is the relative decrease from the control value, in per cent.
